Consider one molecule from patent US8846104B2, “Pharmaceutical compositions for the deterrence and/or prevention of abuse” (priority 2006, dated 2014).

For the assay the following is noted: in comparison to a 15 mg dose of hydrocodone.

As to `CN1CC[C@]23c4c5ccc(O)c4O[C@H]2C(=O)CC[C@H]3[C@H]1C5` [Hydromorphone], the “Equianalgesic Calculated Dose” value is listed as 3.375 mg.
